Molecular target: μ opioid receptor (Rattus norvegicus, UniProt P33535)
Assay: [35S]GTPγS binding assay in rat brain membranes
Assay type: biochemical

The chains behind the UniProt entries cited, without tags or fusion partners.
UniProt P33535, whole entry: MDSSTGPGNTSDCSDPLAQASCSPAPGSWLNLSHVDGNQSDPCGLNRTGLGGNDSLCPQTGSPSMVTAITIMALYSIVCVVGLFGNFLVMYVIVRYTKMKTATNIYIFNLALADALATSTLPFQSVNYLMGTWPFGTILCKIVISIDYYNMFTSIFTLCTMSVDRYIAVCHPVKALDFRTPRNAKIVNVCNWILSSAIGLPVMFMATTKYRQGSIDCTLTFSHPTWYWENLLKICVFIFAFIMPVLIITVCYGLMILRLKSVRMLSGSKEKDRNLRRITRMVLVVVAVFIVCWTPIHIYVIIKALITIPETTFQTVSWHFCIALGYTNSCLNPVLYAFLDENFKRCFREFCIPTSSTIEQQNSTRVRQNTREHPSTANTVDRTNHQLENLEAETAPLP

In the case of “D-Ala^2,Me-Phe^4,Gly-ol^5]enkephalin [DAMGO]”, the “ED50, stimulation of [35S]GTPγS binding” value is reported as 0.309 ± 0.035 µM, the “Effect of CTAP (μ antagonist) on agonist-stimulated [35S]GTPγS binding” value (agonist 1 μM, CTAP 1 and 10 μM) is reported as “antagonism of stimulatory actions” and the “Effect of NTI (δ antagonist) on agonist-stimulated [35S]GTPγS binding” value (agonist 1 μM, NTI 10 nM) is reported as “no significant effect”. For the same substance, the “Effect of naloxone on agonist-stimulated [35S]GTPγS binding” value (agonist 1 μM, naloxone 1 μM) was “prevented by naloxone”, the “Effect of nor-BNI (κ antagonist) on agonist-stimulated [35S]GTPγS binding” value (agonist 1 μM, nor-BNI 100 nM) was “no significant effect” and the “Emax, stimulation of [35S]GTPγS binding” value (percentage of basal activity (defined as 100%)) was 185 ± 4%.

— PMC2954314 (European Journal of Pharmaceutical Sciences, 2010)
